Measurements from PubChem BioAssay AID686971 (National Center for Advancing Translational Sciences (NCATS), 2013).
The entries are a selection whose mix differs from that of the whole data set. Some tests of the compounds listed are not included; inactive here does not mean inactive elsewhere. Inconclusive results are not listed. The source made the active and inactive calls. The call rests on the fitted dose curve; in most records, active means well fitted cell-killing curve with a large enough effect; inconclusive means small, poorly fitted or top-dose-only effect, or effect the other way, or another doubt; inactive means no such curve, though single readings can be large or run the other way.

Experiment: qHTS for induction of synthetic lethality in tumor cells producing 2HG: qHTS for the HT-1080-IDH1KD cell line;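 further: 0% = DMSO wells and -100% = cell-free medium wells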
Conditions: HT-1080 IDH1 knockdown viability, ATP luminescence, 48 h; at 46.1 µM (top of the series)

Compound	activity, negative = toxicity
C=CCN1CCN(CCOC(=O)C(O)(c2ccccc2)c2ccccc2)CC1	inactive: 0.233%
CC(C)N1C(=O)CC2(CCN(CCOC(=O)C(O)(c3ccccc3)c3ccccc3)CC2)C1=O	inactive: 5.45%
